From patent publication US20220267379A1 (published 2022) come the findings set out here.

By UniProt entry, the sequences of proteins in these tests, tags left out. Residues count along the entry.
UniProt P49862, 30-253: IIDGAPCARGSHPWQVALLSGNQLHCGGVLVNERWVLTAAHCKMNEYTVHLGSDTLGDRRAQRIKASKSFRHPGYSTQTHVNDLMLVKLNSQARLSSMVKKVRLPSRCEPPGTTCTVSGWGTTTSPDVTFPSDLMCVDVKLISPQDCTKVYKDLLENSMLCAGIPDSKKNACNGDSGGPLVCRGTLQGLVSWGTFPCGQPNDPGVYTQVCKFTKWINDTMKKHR

The assay has as its target human Kallikrein-related peptidase 7 (hKLK7) (human, UniProt P49862 30-253).

B1: peptide 114 (KLK7 inhibitor without C-terminal serine) (peptide)
peptide: PCLYLARC
modifications: side chains of Cys 2 and Cys 8 connected via 1,3-dibromoacetone
For orientation: Ki means the equilibrium dissociation constant of an inhibitor or competing ligand from its target. A high value points to lower affinity. In turn, B1 showed an inhibition constant Ki of 29 nM. In other words, the double-digit nanomolar range.
